The values below come from US20110224208A1, “NOVEL INHIBITORS OF FLAVIVIRUS REPLICATION” (KATHOLIEKE UNIVERSITEIT LEUVEN, K.U. LEUVEN R&D, priority 2008, published 2011).

The data set is described as follows: Proliferation of exponentially growing Huh-5-2 cells (MTS method). The following applies: human, CC50, concentration required to inhibit the proliferation of exponentially growing Huh-5-2 cells by 50%.

In brackets after ≈: the same amount, converted by molar mass.

In general, CC50 refers to the concentration giving 50% cytotoxicity. The low end stands for harm at low concentration, the high end for better tolerance by the cells. As for `COCCN1C(=O)c2ccccc2C(C(=O)Nc2ccc(Oc3cncc(C)n3)cc2)C1c1cccs1` (stereo not shown) [C191, 2-(2-methoxyethyl)-N-(4-(6-methylpyrazin-2-yloxy)phenyl)-1-oxo-3-(thiophen-2-yl)-1,2,3,4-tetrahydroisoquinoline-4-carboxamide], the CC50 at 72 h is 52.5 µg/mL (≈ 102 µM) (Table 2) and greater than 50 µg/mL (Table 4). Compound `COCCN1C(=O)c2ccccc2C(C(=O)Nc2ccc(N3CCOCC3)cc2)C1c1cccs1` (stereo not shown) [C121, 2-(2-methoxyethyl)-N-(4-morpholinophenyl)-1-oxo-3-(thiophen-2-yl)-1,2,3,4-tetrahydroisoquinoline-4-carboxamide] gave a CC50 at 72 h (Table 2) of 81.2 µg/mL (≈ 165 µM). Take `COCCN1C(=O)c2ccccc2C(C(=O)Nc2cc(C3CC3)nn2C)C1c1cccs1` (stereo not shown) [C197, N-(3-cyclopropyl-1-methyl-1H-pyrazol-5-yl)-2-(2-methoxyethyl)-1-oxo-3-(thiophen-2-yl)-1,2,3,4-tetrahydroisoquinoline-4-carboxamide]: the midpoint of cytotoxicity (Table 2), the CC50 at 72 h, lay at 78.2 µg/mL (≈ 174 µM). The CC50 at 72 h values of the last two compounds are within 1.5-fold of each other. On the same count and under the same terms, then `COCCN1C(=O)c2ccccc2C(C(=O)Nc2ccc(F)c(Cl)c2)C1c1cccs1` (stereo not shown) [C94, N-(3-chloro-4-fluorophenyl)-2-(2-methoxyethyl)-1-oxo-3-(thiophen-2-yl)-1,2,3,4-tetrahydroisoquinoline-4-carboxamide], with 17.1 µg/mL (≈ 37.2 µM); and `COCCN1C(=O)c2cccc(F)c2C(C(=O)Nc2cccc(OC)c2)C1c1cccs1` (stereo not shown) [C61, 5-Fluoro-2-(2-methoxyethyl)-N-(3-methoxyphenyl)-1-oxo-3-(thiophen-2-yl)-1,2,3,4-tetrahydroisoquinoline-4-carboxamide], with 62.6 µg/mL (≈ 138 µM); and `CCN1CCC[C@H]1CN1C(=O)c2ccccc2C(C(=O)Nc2cccc(OC)c2)C1c1cccs1` (stereo partly drawn) [C74, 2-(((S)-1-ethylpyrrolidin-2-yl)methyl)-N-(3-methoxyphenyl)-1-oxo-3-(thiophen-2-yl)-1,2,3,4-tetrahydroisoquinoline-4-carboxamide], with 84.4 µg/mL (≈ 172 µM). For `COCCN1C(=O)c2ccccc2C(C(=O)Nc2ccc(C(C)C)cc2)C1c1cccs1` (stereo not shown) [C165, N-(4-isopropylphenyl)-2-(2-methoxyethyl)-1-oxo-3-(thiophen-2-yl)-1,2,3,4-tetrahydroisoquinoline-4-carboxamide], the midpoint of cytotoxicity (Table 2), the CC50 at 72 h, lay at 33.1 µg/mL (≈ 73.8 µM). The same measure, in the same setting: then `COCCN1C(=O)c2ccccc2C(C(=O)Nc2cccc(Cl)c2)C1c1cccs1` (stereo not shown) [C60, N-(3-chlorophenyl)-2-(2-methoxyethyl)-1-oxo-3-(thiophen-2-yl)-1,2,3,4-tetrahydroisoquinoline-4-carboxamide], with 86.9 µg/mL (≈ 197 µM). In the case of `COCCN1C(=O)c2c(F)cccc2C(C(=O)Nc2cccc(OC)c2)C1c1cccs1` (stereo not shown) [C51, 8-Fluoro-2-(2-methoxyethyl)-N-(3-methoxyphenyl)-1-oxo-3-(thiophen-2-yl)-1,2,3,4-tetrahydroisoquinoline-4-carboxamide], the CC50 at 72 h is 63.1 µg/mL (≈ 139 µM) (Table 2) and greater than 50 µg/mL (Table 4).

The compound `COCCN1C(=O)c2ccccc2C(C(=O)Nc2cc[nH]n2)C1c1cccs1` (stereo not shown) [C184, 2-(2-methoxyethyl)-1-oxo-N-(1H-pyrazol-3-yl)-3-(thiophen-2-yl)-1,2,3,4-tetrahydroisoquinoline-4-carboxamide] yielded a CC50 at 72 h (Table 2) of 85 µg/mL (≈ 214 µM). Under “Table 2”, `COCCN1C(=O)c2ccccc2C(C(=O)Nc2ccc3occc3c2)C1c1cccs1` (stereo not shown) [C195, N-(benzofuran-5-yl)-2-(2-methoxyethyl)-1-oxo-3-(thiophen-2-yl)-1,2,3,4-tetrahydroisoquinoline-4-carboxamide] gave a CC50 at 72 h of 72.1 µg/mL (≈ 161 µM). Still for that read-out and setting: then `COCCN1C(=O)c2ccccc2C(COCc2ccccc2)C1c1cccs1` (stereo not shown) [C76, 4-(benzyloxymethyl)-2-(2-methoxyethyl)-3-(thiophen-2-yl)-3,4-dihydroisoquinolin-1(2H)-one], with 42.2 µg/mL (≈ 104 µM).

In turn, `COCCN1C(=O)c2ccccc2C(C(=O)Nc2ccc(-c3csc(C)n3)cc2)C1c1cccs1` (stereo not shown) [C157, 2-(2-methoxyethyl)-N-(4-(2-methylthiazol-4-yl)phenyl)-1-oxo-3-(thiophen-2-yl)-1,2,3,4-tetrahydroisoquinoline-4-carboxamide] displayed a CC50 at 72 h (Table 2) of 71.3 µg/mL (≈ 142 µM) and a CC50 at 72 h (Table 4) greater than 50 µg/mL.

Compound `COCCN1C(=O)c2ccccc2C(C(=O)Nc2cccc(OC)c2)C1c1c(F)cccc1F` (stereo not shown) [C10, 3-(2,6-Difluorophenyl)-2-(2-methoxyethyl)-N-(3-methoxyphenyl)-1-oxo-1,2,3,4-tetrahydroisoquinoline-4-carboxamide] had a CC50 at 72 h (Table 2) of 49.9 µg/mL (≈ 107 µM). On the same count and under the same terms, to `COCCN1C(=O)c2cc(N)ccc2C(C(=O)Nc2cccc(OC)c2)C1c1cccs1` (stereo not shown) [C147, 7-amino-2-(2-methoxyethyl)-N-(3-methoxyphenyl)-1-oxo-3-(thiophen-2-yl)-1,2,3,4-tetrahydroisoquinoline-4-carboxamide] belongs 77.8 µg/mL (≈ 172 µM); to `COCCN1C(=O)c2ccccc2C(C(=O)Nc2cc(C)nn2C)C1c1cccs1` (stereo not shown) [C109, N-(1,3-dimethyl-1H-pyrazol-5-yl)-2-(2-methoxyethyl)-1-oxo-3-(thiophen-2-yl)-1,2,3,4-tetrahydroisoquinoline-4-carboxamide], 83.5 µg/mL (≈ 197 µM). For `COCCN1C(=O)c2cc(I)ccc2C(C(=O)Nc2cccc(OC)c2)C1c1cccs1` (stereo not shown) [C56, 7-Iodo-2-(2-methoxyethyl)-N-(3-methoxyphenyl)-1-oxo-3-(thiophen-2-yl)-1,2,3,4-tetrahydroisoquinoline-4-carboxamide], the 50% cytotoxic concentration (CC50) at 72 h (Table 2) turned out to be 44 µg/mL (≈ 78.2 µM). On the same count and under the same terms, then `COCCn1c(-c2ccco2)c(C(=O)Nc2cccc(OC)c2)c2ccccc2c1=O` [C38, 3-(furan-2-yl)-2-(2-methoxyethyl)-N-(3-methoxyphenyl)-1-oxo-1,2-dihydroisoquinoline-4-carboxamide], with 85.4 µg/mL (≈ 204 µM); and `COc1cccc(NC(=O)C2c3ccccc3C(=O)N(CC3CCCCC3)C2c2cccs2)c1` (stereo not shown) [C22, 2-(Cyclohexylmethyl)-N-(3-methoxyphenyl)-1-oxo-3-(thiophen-2-yl)-1,2,3,4-tetrahydroisoquinoline-4-carboxamide], with 36.9 µg/mL (≈ 77.8 µM). Still for that read-out and setting: then `COCCN1C(=O)c2ccccc2C(C(=O)Nc2ccc(-n3nc(C)cc3C)cc2)C1c1cccs1` (stereo not shown) [C201, N-(4-(3,5-dimethyl-1H-pyrazol-1-yl)phenyl)-2-(2-methoxyethyl)-1-oxo-3-(thiophen-2-yl)-1,2,3,4-tetrahydroisoquinoline-4-carboxamide], with 19.5 µg/mL (≈ 38.9 µM); and `COCCN1C(=O)c2ccccc2C(C(=O)Nc2cccc(OC)c2)C1C#N` (stereo not shown) [C143, 3-cyano-2-(2-methoxyethyl)-N-(3-methoxyphenyl)-1-oxo-1,2,3,4-tetrahydroisoquinoline-4-carboxamide], with 83.2 µg/mL (≈ 219 µM). The same measure, in the same setting: then `COCCN1C(=O)c2ccccc2C(C(=O)Nc2ccc(C(=O)OC)c(OC)c2)C1c1cccs1` (stereo not shown) [C114, methyl 2-methoxy-4-(2-(2-methoxyethyl)-1-oxo-3-(thiophen-2-yl)-1,2,3,4-tetrahydroisoquinoline-4-carboxamido)benzoate], with 58.7 µg/mL (≈ 119 µM); and `COCCN1C(=O)c2ccccc2C(C(=O)Nc2cccc(OC)c2)C1c1ccnn1C` (stereo not shown) [C105, 2-(2-methoxyethyl)-N-(3-methoxyphenyl)-3-(1-methyl-1H-pyrazol-5-yl)-1-oxo-1,2,3,4-tetrahydroisoquinoline-4-carboxamide], with 84.5 µg/mL (≈ 194 µM). As to `COCCN1C(=O)c2ccccc2C(C(=O)Nc2ccc3nc(C)ccc3c2)C1c1cccs1` (stereo not shown) [C168, 2-(2-methoxyethyl)-N-(2-methylquinolin-6-yl)-1-oxo-3-(thiophen-2-yl)-1,2,3,4-tetrahydroisoquinoline-4-carboxamide], the CC50 at 72 h is greater than 100 µg/mL (Table 2) and greater than 50 µg/mL (Table 4). Turning to `COCCN1C(=O)c2ccccc2C(C(=O)Nc2ccc(-c3cnco3)cc2)C1c1cccs1` (stereo not shown) [C178, 2-(2-methoxyethyl)-N-(4-(oxazol-5-yl)phenyl)-1-oxo-3-(thiophen-2-yl)-1,2,3,4-tetrahydroisoquinoline-4-carboxamide], the CC50 at 72 h (Table 2) was greater than 100 µg/mL and the CC50 at 72 h (Table 4) is greater than 50 µg/mL. On to `COCCN1C(=O)c2ccccc2C(C(=O)Nc2ccc(C(=O)OC)cc2)C1c1cccs1` (stereo not shown) [C45, Methyl 4-(2-(2-methoxyethyl)-1-oxo-3-(thiophen-2-yl)-1,2,3,4-tetrahydroisoquinoline-4-carboxamido)benzoate], for which the CC50 at 72 h by setting is: (Table 2) 72.6 µg/mL (≈ 156 µM); (Table 4) greater than 50 µg/mL. On to `COCCN1C(=O)c2ccccc2C(C(=O)Nc2ccc(OC(F)(F)F)cc2)C1c1cccs1` (stereo not shown) [C113, 2-(2-methoxyethyl)-1-oxo-3-(thiophen-2-yl)-N-(4-(trifluoromethoxy)phenyl)-1,2,3,4-tetrahydroisoquinoline-4-carboxamide], for which the CC50 at 72 h (Table 2) came to 66.9 µg/mL (≈ 136 µM). On the same count and under the same terms, then `COCCN1C(=O)c2ccc(C)cc2C(C(=O)Nc2cccc(OC)c2)C1c1cccs1` (stereo not shown) [C40, 2-(2-Methoxyethyl)-N-(3-methoxyphenyl)-6-methyl-1-oxo-3-(thiophen-2-yl)-1,2,3,4-tetrahydroisoquinoline-4-carboxamide], with 88.1 µg/mL (≈ 195 µM). `COCCN1C(=O)c2cc(Cl)ccc2C(C(=O)Nc2cccc(OC)c2)C1c1cccs1` (stereo not shown) [C43, 7-Chloro-2-(2-methoxyethyl)-N-(3-methoxyphenyl)-1-oxo-3-(thiophen-2-yl)-1,2,3,4-tetrahydroisoquinoline-4-carboxamide]: where the note is “Table 2”, the CC50 at 72 h was determined as 70.8 µg/mL (≈ 150 µM). With `COCCN1C(=O)c2ccccc2C(C(=O)Nc2ccc(Oc3ccccc3)nc2)C1c1cccs1` (stereo not shown) [C158, 2-(2-methoxyethyl)-1-oxo-N-(6-phenoxypyridin-3-yl)-3-(thiophen-2-yl)-1,2,3,4-tetrahydroisoquinoline-4-carboxamide], the CC50 at 72 h (Table 2) stood at 6.1 µg/mL (≈ 12.2 µM). Against the preceding compound, the CC50 at 72 h is about 12-fold lower. With `COCCN1C(=O)c2ccccc2C(C(=O)Nc2ccc(-c3noc(C)n3)cc2)C1c1cccs1` (stereo not shown) [C187, 2-(2-methoxyethyl)-N-(4-(5-methyl-1,2,4-oxadiazol-3-yl)phenyl)-1-oxo-3-(thiophen-2-yl)-1,2,3,4-tetrahydroisoquinoline-4-carboxamide], the CC50 at 72 h was 12.4 µg/mL (≈ 25.4 µM) (Table 2) and greater than 50 µg/mL (Table 4). As to `COCCN1C(=O)c2ccccc2C(C(=O)Nc2ccc(-n3cccc3)cc2)C1c1ccc(Cl)s1` (stereo not shown) [C153, N-(4-(1H-pyrrol-1-yl)phenyl)-3-(5-chlorothiophen-2-yl)-2-(2-methoxyethyl)-1-oxo-1,2,3,4-tetrahydroisoquinoline-4-carboxamide], the CC50 at 72 h is 60.9 µg/mL (≈ 120 µM) (Table 2) and greater than 50 µg/mL (Table 4).
